For this data set the following is noted: rat, dermal (Group 2).

This note sets out measurements from patent US20080182822A1, “Liquid Pharmaceutical Compositions Comprising a Bisphosphonate Compound” (Besins Healthcare SA, priority 2006, published 2008).

Several values for one entry are separate records, joined by “and”; a condition that tells them apart may be missing. Identical values can stand only once. Like-named read-outs stand apart in the source and are kept apart here.

In the case of `NCCCC(O)(P(=O)(O)O)P(=O)(O)O` [14C-alendronate], the “Recovery from Treated Skin, Amount in Skin Sample” value (“Recovery from Treated Skin, Amount” for short) (necropsy Day 4, Mean) came out at 6.55 µg; the “Recovery from Treated Skin, Amount” value (necropsy Day 4, individual animals) is 6.17 µg and 5.49 µg and 6.68 µg and 8.21 µg and 6.19 µg; the “Recovery from Treated Skin, Amount” value (necropsy Day 8, individual animals) was 4.70 µg and 4.12 µg and 6.13 µg and 7.32 µg and 4.04 µg.
